Measured values reported in paper PMC8667921.

By UniProt entry, the sequences of proteins in these tests, tags left out.
UniProt Q13526, whole entry: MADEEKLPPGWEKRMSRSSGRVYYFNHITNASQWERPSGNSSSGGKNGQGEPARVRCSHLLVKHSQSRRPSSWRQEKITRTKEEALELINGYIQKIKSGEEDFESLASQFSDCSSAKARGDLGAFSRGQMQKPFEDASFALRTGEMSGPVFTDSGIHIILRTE

Target: PIN1 (Homo sapiens, UniProt Q13526)
Test: in vitro fluorescent SensoLyte Green Pin1 Assay Kit

| IC50 [µM] | SMILES |
| --- | --- |
| 6.4 | O=C(O)c1ccc(-c2ccccc2)[nH]c1=O |
| 29.3 | O=C(Nc1snnc1C(=O)O)c1ccc(Cl)cc1 |
